Format in all cases: cell-based
Assay [1] has as its system human colon cancer cell line HCT116 cells. The assay can be described thus: Cell proliferation inhibitory activity, HCT116. The following applies: HCT-116, HCT116, 72 hours, WST-8, read-out: 50% proliferation inhibitory concentration (IC50 value) HCT116. The protocol: (§1) The compounds according to the present invention were measured for cancer cell proliferation inhibitory activity and human umbilical vein endothelial cell (HUVEC) proliferation inhibitory activity. As control compounds, the following known Compound A (BAY 43-9006) and Compound B were used.
(§2) Test compounds were serially diluted with dimethyl sulfoxide and then diluted 50 times with Ca^2+- and Mg^2+-free phosphate-buffered saline, and 20 μL of each of the resulting solution was dispensed into a 96-well plate. Separately, cell suspensions of human colon cancer cell line HCT116 cells suspended in McCoy's 5a culture medium supplemented with 10% fetal bovine serum, human umbilical vein endothelial cells (HUVECs: purchased from Clonetics) suspended in PRMI 1640 culture medium supplemented with 10% fetal bovine serum, 30 μg/mL of vascular endothelial cell growth-promoting agent, and 50 μg/mL of heparin for VEGF-independent HUVEC proliferation inhibition assay, and HUVECs suspended in PRMI 1640 culture medium supplemented with 10% fetal bovine serum and 20 ng/mL of VEGF for VEGF-dependent HUVEC proliferation inhibition assay were prepared. Each cell suspension contains approximately 3000 cells/180 μL. […] 20 μL of WST-8 (HCT116, Dojin) or WST-1 (HUVEC, Roche Diagnostics) was added to each well, and absorbance at 450 nm (reference wavelength: 650 nm) was measured. […]
In general terms: Tetrazolium dyes change colour on reduction, which living cells bring about.

Assay [2] relates to human umbilical vein endothelial cells (HUVEC), VEGF-dependent proliferation. In words: VEGF-dependent HUVEC proliferation inhibition assay. The settings on record: 20 ng/mL of VEGF, 72 hours, WST-1, read-out: 50% proliferation inhibitory concentration (IC50 value) HUVEC (VEGF-dependent). How it is done: as §1, §2
Assay [3] relates to human umbilical vein endothelial cells (HUVEC), VEGF-independent proliferation. The assay can be described thus: VEGF-independent HUVEC proliferation inhibition assay. The settings on record: vascular endothelial cell growth-promoting agent and heparin, 72 hours, WST-1, read-out: 50% proliferation inhibitory concentration (IC50 value) HUVEC (VEGF-independent). How it is done:
as §1, §2

The subject of assay [4] is tube formation of human-derived vascular endothelial cells (HUVEC). In words: Tube formation inhibition test (angiogenesis assay kit, KURABO). The following applies: 264 h, final concentration 6.4 nM, 11 days, read-out: Tube formation inhibition ratio (%). The protocol: Each test compound was added to an angiogenesis assay kit (KURABO) so that the final concentration was 6.4 nM and incubated in a 5% carbon dioxide gas incubator at 37° C. for 11 days. The formed tubes were stained with a tube staining kit CD31 (KURABO). The stain image of each well was taken under a microscope, stored in an image file, and measured for the tube formation area using angiogenesis quantitative analysis software of KURABO. The inhibition ratio % of each test compound added to the well was calculated, provided that the ratio of the reference was 100%.

Take `CNC(=O)c1cc(Oc2ccc(NC(=O)Nc3ccc(Cl)c(C(F)(F)F)c3)cc2)ccn1` [Compound A, BAY 43-9006, reference compound]: the IC50 in assay [1] was 3000 nM; in assay [2], 21 nM; in assay [3], 4600 nM. The inhibition at 0.0064 µM in assay [4] was 21%.
